In general, IC50 refers to the point on the concentration scale where inhibition reaches its midpoint.

Amino acid sequences for entries named in this document (tags omitted). Residues count along the entry.
UniProt P19801, 20-751 limits assumed: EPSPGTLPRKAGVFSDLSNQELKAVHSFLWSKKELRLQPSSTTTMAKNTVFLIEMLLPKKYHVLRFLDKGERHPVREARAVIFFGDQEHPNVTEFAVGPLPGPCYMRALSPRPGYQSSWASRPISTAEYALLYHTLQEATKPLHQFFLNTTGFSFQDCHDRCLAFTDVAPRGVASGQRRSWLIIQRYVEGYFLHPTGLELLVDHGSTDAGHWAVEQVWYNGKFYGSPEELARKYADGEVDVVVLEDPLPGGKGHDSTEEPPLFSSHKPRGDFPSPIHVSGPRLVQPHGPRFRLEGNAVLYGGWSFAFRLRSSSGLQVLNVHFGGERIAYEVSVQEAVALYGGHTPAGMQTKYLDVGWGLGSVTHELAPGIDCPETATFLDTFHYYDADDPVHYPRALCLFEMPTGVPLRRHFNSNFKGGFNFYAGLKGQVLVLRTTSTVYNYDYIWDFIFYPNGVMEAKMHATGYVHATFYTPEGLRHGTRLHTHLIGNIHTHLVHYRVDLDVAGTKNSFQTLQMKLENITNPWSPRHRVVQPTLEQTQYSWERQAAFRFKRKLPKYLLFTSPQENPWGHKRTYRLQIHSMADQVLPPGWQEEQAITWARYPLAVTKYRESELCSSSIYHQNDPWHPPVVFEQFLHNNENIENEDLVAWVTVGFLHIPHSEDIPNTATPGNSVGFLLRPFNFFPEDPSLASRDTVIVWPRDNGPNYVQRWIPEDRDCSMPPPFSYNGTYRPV
UniProt Q16853, whole entry: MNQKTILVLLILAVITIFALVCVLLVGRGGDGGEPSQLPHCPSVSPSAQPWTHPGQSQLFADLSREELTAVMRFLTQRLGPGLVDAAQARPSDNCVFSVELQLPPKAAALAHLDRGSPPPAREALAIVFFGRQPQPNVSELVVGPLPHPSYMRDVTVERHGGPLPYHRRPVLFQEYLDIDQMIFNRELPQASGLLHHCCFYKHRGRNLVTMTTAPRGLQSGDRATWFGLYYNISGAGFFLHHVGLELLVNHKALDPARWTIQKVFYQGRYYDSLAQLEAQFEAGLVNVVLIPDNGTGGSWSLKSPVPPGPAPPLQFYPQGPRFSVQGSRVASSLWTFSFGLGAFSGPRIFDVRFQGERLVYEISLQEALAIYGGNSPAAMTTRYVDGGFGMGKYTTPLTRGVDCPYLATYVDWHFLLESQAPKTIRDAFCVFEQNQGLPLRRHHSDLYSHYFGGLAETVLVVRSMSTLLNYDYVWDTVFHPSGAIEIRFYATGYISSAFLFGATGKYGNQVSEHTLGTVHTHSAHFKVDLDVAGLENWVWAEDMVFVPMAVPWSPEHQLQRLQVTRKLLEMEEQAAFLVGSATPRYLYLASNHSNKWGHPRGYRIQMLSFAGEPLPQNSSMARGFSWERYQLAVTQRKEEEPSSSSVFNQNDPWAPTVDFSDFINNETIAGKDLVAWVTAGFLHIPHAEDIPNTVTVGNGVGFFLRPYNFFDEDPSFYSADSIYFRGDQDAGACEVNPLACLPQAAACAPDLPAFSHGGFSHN

The target in one assay is AOC1 (Homo sapiens, UniProt P19801). The assay is described as follows: AOC1 biochemical assay (Amplex Red). The settings on record: read-out: AOC1 IC50; Table 1.
For the next assay, the target named is AOC3 (Homo sapiens, UniProt Q16853). The assay is described as follows: AOC3 biochemical assay (MAO-Glo). The settings on record: read-out: AOC3 IC50; Table 1.

Regarding `N=C(N)NC(=O)OCc1cccc(-c2cnc(NCc3ccon3)nc2)n1`, the IC50 was found to be 2.37 µM on AOC1 and 0.003 µM at AOC3.

The record behind these values is patent US9926292B2, “Pyridinyl derivatives, pharmaceutical compositions and uses thereof” (Boehringer Ingelheim International GmbH, priority 2016, dated 2018).
